Assay results taken from paper PMC7252906 (Toxicology and applied pharmacology, 2019).
“And” between values parts separate entries of the source, which are not always exact repeats. Equal values may be shown once. Read-outs that look alike come from different tables or passages of the source.

What was measured:
[1] = 24 h
[2] = female mice, gavage 160 mg/kg, 24 h, listed as [^14C]choline
[3] = male rats, gavage 160 mg/kg, DMAE dose 0, listed as [^14C]choline, 160 mg/kg
[4] = DMAE pre-treatment 500 mg/kg, 1 h prior

- % Dose Recovered, Feces ([1]; female rats, IV 16 mg/kg, DMAE dose 0): 0.303 ± 0.132 % dose
- % Dose Recovered, Feces ([1]; female rats, gavage 160 mg/kg, DMAE dose 0, listed as [^14C]choline, 160 mg/kg): 13 % dose and 12.9 ± 10.0 % dose
- % Dose Recovered, Feces ([1]; female rats, gavage 160 mg/kg, DMAE pre-treatment 500 mg/kg, listed as [^14C]choline): 2.5 % dose and 2.52 ± 2.85 % dose
- fecal excretion ([1]; female rats, gavage 160 mg/kg, no pre-treatment or 100 mg/kg DMAE pre-treatment): 11–13%
- % Dose Recovered, Feces ([1]; male rats, IV 16 mg/kg, DMAE dose 0): 0.107 ± 0.052 % dose
- % Dose Recovered, CO2 [1, 3]: ~13 % dose
- % Dose Recovered, Feces [1, 3]: ~22 % dose and 21.5 ± 5.10 % dose
- % Dose Recovered, Total Recovered ([1]; male rats, gavage 160 mg/kg, DMAE pre-treatment 100 mg/kg, 1 h prior): 86.1 ± 6.20 % dose
- % Dose Recovered, Feces ([1]; male rats, gavage 160 mg/kg, DMAE pre-treatment 100 mg/kg, 1 h prior, listed as [^14C]choline): 21 % dose and 21.3 ± 13.8 % dose
- % Dose Recovered, Total Recovered ([1]; male rats, gavage 160 mg/kg, DMAE pre-treatment 500 mg/kg, 1 h prior): 87.1 ± 1.90 % dose
- % Dose Recovered, Feces ([1]; male rats, gavage 160 mg/kg, three DMAE pre-treatments 100 mg/kg 48, 24 and 1 h prior): 10.2 ± 10.2 % dose
- % Dose Recovered, Feces ([2]; DMAE dose 0, 160 mg/kg): 3 % dose and 2.62 ± 3.34 % dose
- % Dose Recovered, Total Recovered ([2]; DMAE dose 0, 160 mg/kg): 81 % dose
- % Dose Recovered, Feces [2, 4]: 11 % dose
- % Dose Recovered, Total Recovered [2, 4]: 91 % dose and 90.8 ± 8.60 % dose
SMILES: C[N+](C)(C)CCO [choline, N,N,N-trimethylaminoethanol]
